Molecular target: Human COX I (Homo sapiens, UniProt P23219)
Assay: Assay for COX I activity in vitro (PGE2 ELISA, recombinant enzyme)

Amino acid sequences for entries named in this document (tags omitted). Residues count along the entry.
UniProt P23219, 24-599: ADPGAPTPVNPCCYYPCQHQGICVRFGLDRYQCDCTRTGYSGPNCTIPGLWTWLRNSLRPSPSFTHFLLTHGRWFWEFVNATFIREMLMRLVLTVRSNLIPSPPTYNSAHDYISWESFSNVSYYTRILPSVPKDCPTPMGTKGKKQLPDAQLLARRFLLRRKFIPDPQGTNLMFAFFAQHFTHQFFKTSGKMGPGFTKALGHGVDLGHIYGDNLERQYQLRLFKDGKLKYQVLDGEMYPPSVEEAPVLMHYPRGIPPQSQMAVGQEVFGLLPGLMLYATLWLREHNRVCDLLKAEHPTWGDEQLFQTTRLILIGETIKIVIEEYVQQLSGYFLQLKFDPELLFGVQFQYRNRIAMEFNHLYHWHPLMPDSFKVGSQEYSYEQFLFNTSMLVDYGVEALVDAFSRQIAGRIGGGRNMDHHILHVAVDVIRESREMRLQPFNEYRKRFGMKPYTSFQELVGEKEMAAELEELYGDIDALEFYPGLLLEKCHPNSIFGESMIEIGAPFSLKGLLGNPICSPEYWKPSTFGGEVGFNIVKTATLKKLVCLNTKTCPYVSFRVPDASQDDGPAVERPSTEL

Structure (SMILES)	IC50
CN(C)C=NS(=O)(=O)c1ccc(-n2nc(C#N)c(Cl)c2-c2ccc(F)cc2)cc1 [Example 259]	> 100 µM
NC(=O)c1cc(-c2ccc(Cl)cc2)n(-c2ccc(S(N)(=O)=O)cc2)n1	> 100 µM
COC(=O)c1cc(-c2ccc(Cl)cc2)n(-c2ccc(S(N)(=O)=O)cc2)n1 [Example 85, Methyl [1-(4-aminosulfonylphenyl)-5-(4-chlorophenyl)-1H-pyrazole-3-yl]carboxylate]	> 100 µM
NS(=O)(=O)c1ccc(-n2nc(CCCO)cc2-c2ccc(F)cc2)cc1 [Example 173, 4-[5-(4-Fluorophenyl)-3-(3-hydroxypropyl)-1H-pyrazol-1-yl]benzenesulfonamide]	> 100 µM
NS(=O)(=O)c1ccc(-n2nc(C(F)(F)F)c(C3CC3)c2-c2ccccc2)cc1	> 100 µM
COc1c(Cl)cc(-c2cc(C(F)(F)F)nn2-c2ccc(S(N)(=O)=O)cc2)cc1Cl	> 100 µM
NS(=O)(=O)c1ccc(-n2nc(C(F)F)cc2C2CCCCC2)cc1 [Example 170, 4-[5-(1-Cyclohexyl)-3-(difluoromethyl)-1H-pyrazol-1-yl]benzenesulfonamide]	> 100 µM
CCCc1cc(-c2cc(C(F)(F)F)nn2-c2ccc(S(N)(=O)=O)cc2)ccc1OC	> 100 µM
NS(=O)(=O)c1ccc(-n2nc(C(F)(F)C(F)(F)C(F)(F)F)cc2-c2ccc(Cl)cc2)cc1	> 100 µM
CCOC(=O)c1cc(-c2ccc(Cl)cc2)n(-c2ccc(S(N)(=O)=O)cc2)n1 [Example 86, Ethyl [1-(4-aminosulfonylphenyl)-5-(4-chlorophenyl)-1H-pyrazole-3-yl]carboxylate]	> 100 µM
CN(C)C=NS(=O)(=O)c1ccc(-n2nc(C#N)c(Br)c2-c2ccccc2)cc1 [Example 260, 4-[4-Bromo-3-cyano-5-phenyl-1H-pyrazol-1-yl]-N-[(dimethylamino)methylene]benzenesulfonamide]	> 100 µM
NS(=O)(=O)c1ccc(-n2nc(CCCO)cc2-c2ccccc2)cc1 [Example 172, 4-[5-Phenyl-3-(3-hydroxypropyl)-1H-pyrazol-1-yl]benzenesulfonamide]	> 100 µM
COc1ccc(-c2cc(C(F)(F)F)nn2-c2ccc(S(N)(=O)=O)cc2)cc1CC1CC1	> 100 µM
NS(=O)(=O)c1ccc(-n2nc(C(F)(F)F)c(CO)c2-c2ccccc2)cc1	> 100 µM
CCOC(=O)C(C#N)=Cc1cc(-c2ccccc2)n(-c2ccc(S(N)(=O)=O)cc2)n1	> 100 µM
